Results on 47 compounds are retold here after PubChem BioAssay AID2101 (National Center for Advancing Translational Sciences (NCATS), 2009).

Several values for one entry are separate records, joined by “and”; a condition that tells them apart may be missing. Equal values may be shown once. The entries are a selection whose mix differs from that of the whole data set. Inconclusive results are not listed. Activity calls are given as the source filed them. The call rests on the fitted dose curve; in most records, active means well fitted inhibition curve with a large enough effect; inconclusive means small, poorly fitted or top-dose-only effect, or effect the other way, or another doubt; inactive means no such curve, though single readings can be large or run the other way.

The experiment deals with Lysosomal acid glucosylceramidase (Homo sapiens) (UniProt P04062). Kind of experiment: qHTS Assay for Inhibitors and Activators of N370S glucocerebrosidase as a Potential Chaperone Treatment of Gaucher Disease.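 Further: 0% = full enzyme activity and -100% = no enzyme basal.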 The settings on record: N370S GC spleen homogenate, 4MU-glucoside fluorescence. The text has this: NIH Chemical Genomics Center [NCGC]
NIH Molecular Libraries Probe Production Centers Network [MLPCN]
Assay Submitter (PI): Wei Zheng
Glucocerebrosidase (GC) catalyzes the hydrolysis of beta-glucocerebroside to glucose and ceramide in lysosomes. Mutations in the glucocerebrosidase gene result in Gaucher disease, an autosomal recessive lysosomal storage disorder. Many of the mutations encountered in patients with Gaucher disease are missense alterations that may cause misfolding, decreased stability and/or mistrafficking of this lysosomal protein. […] These inhibitors include iminosugar analogs and three non-iminosugar inhibitors identified from a previous HTS of 62,000 compounds with the wild type recombinant enzyme. However, the enhancement of enzyme activity by the chaperone action of an enzyme inhibitor must be balanced against the direct inhibition of the enzyme. An enzyme activator could also function as a chaperone by binding to the enzyme and helping to correct its misfolding and mistrafficking. While activators for GC have not yet been identified, they may have better therapeutic potential than inhibitors. Therefore the discovery and development of chemical activators may provide a new strategy for the chaperone therapy.
We have optimized a new assay using N370S mutant GC derived from the spleen of a Gaucher patient. […] In addition, the MLPCN compound library has expanded, which increases the chance of finding new and better probes.
NCGC Assay Protocol Summary:
This is a fluorogenic enzyme assay with 4-methylumbelliferyl-beta-D-glucopyranoside as the substrate and N370S glucocerebrosidase from human spleen homogenate as the enzyme preparation. Upon the hydrolysis of this fluorogenic substrate, the resulting product, […] which can be detected by a standard fluorescence plate reader. Data were normalized to the controls for basal activity (without enzyme) and 100% activity (with enzyme). The AC50 values were determined from concentration-response data modeled with the standard Hill equation.
Assay buffer: 50 mM citric acid (titrated with potassium phosphate to pH 5.0), 100 mM potassium chloride, 10 mM sodium chloride, 1 mM magnesium chloride, 0.01% Tween-20.
1536-well assay protocol:
(1) Add 2 ul/well of spleen homogenate (27 ug final)
(2) Add 23 nL compounds in DMSO solution. The final titration was 0.5 nM to 58 uM.
(3) Add 2 ul of substrate (1 mM final)
(4) Incubate at 37C for 40 min.
(5) Add 2 ul stop solution (1M NaOH and 1M Glycine mixture, pH 10)
(6) Detect the assay plate in a ViewLux plate reader (PerkinElmer) with Ex=365 nm and Em=440nm.
Keywords: Glucocerebrosidase, beta-glucosidase, Gaucher Disease, pharmacological chaperone, chaperone therapy, high throughput screening, glucocerebrosidase inhibitor, MLSMR, MLSCN, NIH Roadmap, qHTS and NCGC
(In qHTS, concentration-response curves come from the screen itself.)

Where [1] appears, read: at 59.4 µM (top of the series) unless noted.

With `Cc1ccc2nc3c(c(C)c2c1)CC(C(Cl)Cl)S3` (stereo not drawn), the activity change, negative = inhibition under setting [1] is inactive: 16.9%.
Same read-out and setting: the figure for `COc1ccc(N/C(=N/P(=O)(N2CCOCC2)N2CCOCC2)N2CCOCC2)cc1` is inactive: -4.08%; for `Cc1c2c(nc3ccccc13)SC(C(Cl)Cl)C2` (stereo not drawn) it is inactive: 9.85%.
The same measure, in the same setting: the figure for `O=C(OC1CN2CCC1CC2)C12CC3CC(CC(C3)C1)C2` (stereo not drawn) is inactive: -15.3%.
For `Cc1cc(=O)[nH]c(N[N+](=O)[O-])n1`, the activity change, negative = inhibition under setting [1] is inactive: -4.68%.
Same read-out and setting: the figure for `COc1ccc2nc(NP(=O)(c3ccccc3)c3ccccc3)sc2c1` is inactive: 0.597%; for `COc1cc(I)ccc1[As](=O)(O)O` it is inactive: -15.7%.
On the same count and under the same terms, the figure for `Nc1cccc2c([As](=O)(O)O)cccc12` is inactive: 7.21%.
Same read-out and setting: the figure for `Cc1ccc(NCCc2c([N+](=O)[O-])cc([N+](=O)[O-])cc2[N+](=O)[O-])cc1` is inactive: -1.33%; for `CCCOP(=S)(Nc1nc(N)cc(=O)[nH]1)OCCC` it is inactive: -15.9%.
In the case of `CCOP(=O)(Nc1cccc2ccccc12)OCC`, under setting [1], the activity change, negative = inhibition was inactive: 29.7%.
With `O=C(OC1CN2CCC1CC2)c1ccc(Cl)cc1` (stereo not drawn), under setting [1], the activity change, negative = inhibition is inactive: 1.57%.
The same measure, in the same setting: under `CN(C(=O)Cc1ccc(Cl)c(Cl)c1)[C@@H]1CC[C@]2(CCCO2)C[C@H]1N1CCCC1` stands inactive: -35.4% and inactive: -3.88%; under `O=[As](O)(O)c1cccnc1`, inactive: 0.371%; under `COc1cc(C(=O)NCC2(N3CCOCC3)CCCCC2)cc(Cl)c1OC(C)C`, inactive: -12.9%.
The same measure, in the same setting: the figure for `CS(=O)(=O)c1ccc(Cl)c(NC(=O)COC(=O)C(O)(c2ccccc2)c2ccccc2)c1` is inactive: -8.61%; for `Cc1cccc(OCC(=O)OC2CN3CCC2CC3)c1` (stereo not drawn) it is inactive: 1.68%.
Still for that read-out and setting: under `O=[As](O)(c1cccc(O)c1)c1cccc(O)c1` stands inactive: 6.25%.
Take `NC(=O)Nc1ccc([As](=O)(O)O)cc1`: the activity change, negative = inhibition by setting is: (at 21.6 µM (top of the series)) inactive: 5.53%; (at 59.4 µM (top of the series)) inactive: 0.802% and inactive: 6.39%.
Take `N#CCCN(C(=O)COC(=O)C(O)(c1ccccc1)c1ccccc1)c1ccc(F)cc1`: under setting [1], the activity change, negative = inhibition was inactive: -26.4%.
On to `CCOP1(=S)c2c(C)nn(CCC#N)c2N=C(c2ccc(F)cc2)N1C` (stereo not drawn), for which the activity change, negative = inhibition under setting [1] is inactive: 8.61%.
On to `CN(C(=O)Cc1ccccc1)[C@@H]1CC[C@]2(CCCO2)C[C@H]1N1CCCC1`, for which the activity change, negative = inhibition under setting [1] was inactive: -3.91% and inactive: -4.74%.
As to `O=[N+]([O-])c1ccc2c(c1)nnn2O`, the activity change, negative = inhibition under setting [1] was inactive: 4.4%.
As to `O=P(Nc1nccs1)(Oc1ccccc1)Oc1ccccc1`, the activity change, negative = inhibition under setting [1] was inactive: 13.3%.
The same measure, in the same setting: under `O=P(Nc1nccs1)(c1ccccc1)c1nc2ccccc2s1` (stereo not drawn) stands inactive: 5.4%.
The same measure, in the same setting: the figure for `CS(=O)(=O)c1cc([N+](=O)[O-])c2no[n+]([O-])c2c1` is inactive: -19.4%.
Same read-out and setting: the figure for `Nc1ccccc1[As](=O)(O)c1ccccc1` is inactive: -0.577%.
As to `O=C(O)COc1ccc([As](=O)(O)O)cc1[N+](=O)[O-]`, under setting [1], the activity change, negative = inhibition is inactive: -7.97%.
As to `O=P1(Nc2ncccn2)COc2ccccc2OC1`, the activity change, negative = inhibition under setting [1] was inactive: 10.1%.
As to `Nc1cccc([As](=O)(O)c2ccccc2)c1`, the activity change, negative = inhibition under setting [1] was inactive: 4.42%.
On to `O=[As](O)(c1cccs1)c1cccs1`, for which, under setting [1], the activity change, negative = inhibition was inactive: 1.41%.
Consider `Cc1ccc(OCC(=O)OC2CN3CCC2CC3)cc1` (stereo not drawn), for which the activity change, negative = inhibition under setting [1] is inactive: -2.69%.
On the same count and under the same terms, the figure for `O=P1(Nc2ccc(Br)cn2)COc2ccccc2OC1` is inactive: 28.9%; for `Cc1nn(-c2ccccc2)c2c1P(=O)(N1CCOCC1)N(C)C(c1ccccc1)=N2` (stereo not drawn) it is inactive: -21.2%; for `CC1CCC(C(C)C)C(OP(=O)(Nc2ccccn2)c2ccccc2)C1` (stereo not drawn) it is inactive: 11.8%.
Consider `CN(C)C1(CNC(=O)c2ccc(S(C)(=O)=O)cc2)CCCCC1`, for which the activity change, negative = inhibition under setting [1] was inactive: 11.3%.
The same measure, in the same setting: the figure for `O=C(/C=C/c1ccccc1)OC1CN2CCC1CC2` (stereo not drawn) is inactive: 20.5%; for `COc1ccccc1CNC(=O)COC(=O)C(O)(c1ccccc1)c1ccccc1` it is inactive: -23.3%; for `CC(C)/C=N\N=C(\N)N[N+](=O)[O-]` it is inactive: -2.39%.
In the case of `CN(C(=O)Cc1ccc(Cl)c(Cl)c1)[C@@H]1CCCC[C@H]1N1CCCC1`, the activity change, negative = inhibition under setting [1] is inactive: -8.53% and inactive: -25.4% and inactive: -2.93%.
On the same count and under the same terms, under `O=[As](O)(c1ccccc1Br)c1ccccc1Br` stands inactive: 0.678%; under `O=P1(Nc2ccccn2)COc2ccccc2OC1`, inactive: -3.93%.
As to `CCOP(=O)(NC(=NC(C)c1ccccc1)NC(C)c1ccccc1)OCC` (stereo not drawn), the activity change, negative = inhibition under setting [1] is inactive: -11.3%.
For `CCOP(=O)(Nc1ccc(C)cn1)OCC`, the activity change, negative = inhibition under setting [1] was inactive: 2%.
On the same count and under the same terms, the figure for `CN(CCCl)Cc1cc(Cl)c(NC2=NCCN2)c(Cl)c1` is inactive: 1.71% and inactive: -1.22%; for `Clc1n[nH]nc1-c1nn[nH][15n]1` it is inactive: 3.96%.
Same read-out and setting: under `CC(C)(C)C(=O)NC(Sc1ncccn1)C(Cl)(Cl)Cl` (stereo not drawn) stands inactive: 3.44%.
